# According to PubChem BioAssay AID1117267 (The Scripps Research Institute Molecular Screening Center, 2014):
# The entries are a selection whose mix differs from that of the whole data set. Active and inactive are the calls of the source.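 How the source made its calls: active means activation above the mean of all tested compounds plus 3 SD (cut at about 9.5% in these data); inactive means the rest.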
# Experiment: TTR transcription activators in neuroblastoma reporter cells, primary screen, cell-based, luminescence, SH-SY5Y, TTR promoter Gaussia luciferase (AID 1117267);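 further: cells exposed to compounds for one day before reading; 0% = median of all test compound wells on the plate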
# Details: at 16.7 µM, stronger effect = higher value, 100% = recombinant luciferase protein wells
row,Structure (SMILES),activation
1,O=[N+]([O-])c1cc([N+](=O)[O-])c(Nc2nnnn2CCO)c([N+](=O)[O-])c1,inactive: 0.93%
2,CN1CCCCC1COC(=O)C1(O)c2ccccc2CCc2ccccc21 (configuration not stated),inactive: 2.24%
3,CP(=O)(Nc1ccc(SC(F)(F)F)cc1)Oc1ccccc1 (configuration not stated),inactive: -2.2%
4,O=[N+]([O-])c1cc([N+](=O)[O-])c(-c2cnn(-c3ccccc3)c2)c([N+](=O)[O-])c1,inactive: 0.72%
5,Cc1ccc(C)c(NP(C)(=O)Oc2ccccc2)c1 (configuration not stated),inactive: 1.95%
6,CP(=O)(Nc1ccc(SC(F)(F)F)cc1)Oc1ccc(Cl)cc1 (configuration not stated),inactive: -1.46%
7,CCc1ccc(OP(C)(=O)N2CCN(c3ccc([N+](=O)[O-])cc3)CC2)cc1 (configuration not stated),inactive: -3.77%
8,O=[N+]([O-])c1cc([N+](=O)[O-])c(O)c([N+](=O)[O-])c1.c1ccc(Oc2ccncc2)cc1,inactive: -0.36%
9,CP(=O)(Nc1ccccn1)Oc1ccc(Cl)cc1 (configuration not stated),inactive: 0.69%
10,COc1ccccc1OP(C)(=O)Nc1ccccc1 (configuration not stated),inactive: 1.01%
11,COc1ccc(OP(C)(=O)Nc2ccc(Br)cc2)cc1 (configuration not stated),inactive: -0.08%
12,O=C(OCCCN1CCCC1)C(O)(c1ccccc1)C1CCCCC1 (configuration not stated),inactive: 5.31%
13,COc1ccccc1OP(C)(=O)Nc1ccccc1Br (configuration not stated),inactive: 1.5%
14,CN(C)C(=O)c1c([N+](=O)[O-])cc([N+](=O)[O-])cc1[N+](=O)[O-],inactive: 0.53%
15,O=[N+]([O-])c1cc([N+](=O)[O-])c(Nc2ccccn2)c([N+](=O)[O-])c1,inactive: -6.12%
16,CP(=O)(Nc1ccccn1)Oc1ccccc1 (configuration not stated),inactive: 2.84%
17,COc1ccc(OP(C)(=O)Nc2ccc(SC(F)(F)F)cc2)cc1 (configuration not stated),inactive: 5.62%
18,O=[N+]([O-])c1cc([N+](=O)[O-])c(OC2CCCCC2O)c([N+](=O)[O-])c1 (configuration not stated),inactive: -1.78%
19,O=C(OC1CN2CCC1CC2)c1ccc([N+](=O)[O-])cc1 (configuration not stated),inactive: 1.82%
20,CP(=O)(Nc1ccc(SC(F)(F)F)cc1)Oc1ccc(F)cc1 (configuration not stated),inactive: -2.77%
21,CCOP(C)(=S)SCC(=O)NC(C)(CC)C(=O)O (configuration not stated),inactive: -1.68%
22,Cc1ccccc1NP(C)(=O)Nc1ccccc1C,inactive: 1.46%
